Data from patent US11053218B2, “3-(1-oxoisoindolin-2-yl)piperidine-2,6-dione derivatives and uses thereof” (Novartis AG, priority 2017, dated 2021).

Test system: primary human regulatory T cells
Experiment: IL-2 production of expanded primary human Treg cells
Type: cell-based
Details: purified primary human Treg cells, five donors, FIG. 2

In the case of `O=C1CCC(N2Cc3cc(C4CCN(Cc5ccccc5)CC4)ccc3C2=O)C(=O)N1` (stereo not shown) [Compound I-57, 3-(5-(1-benzylpiperidin-4-yl)-1-oxoisoindolin-2-yl)piperidine-2,6-dione], the “Production of IL2 in Treg cells as compared to the control” value is reported as “enhanced”.
